In test [1] the target is Induced myeloid leukemia cell differentiation protein Mcl-1 (Homo sapiens, UniProt Q07820). Description: Binding affinity to His-tagged MCL1 (171 to 327) (unknown origin) expressed in Escherichia coli BL21(DE3) assessed as inhibition of MCL1-N-terminal biotin-labeled BIM BH3 peptide interaction after 30 mins by surface plasmon resonance analysis.
The next test is filed under the species Homo sapiens. Kind of test: Selectivity ratio of Ki for His-tagged BCL2 (1 to 202) (unknown origin) to Ki for His-tagged MCL1 (171 to 327) (unknown origin). The procedure, abridged: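 Buffer 100 mM potassium phosphate pH 7.5 with bovine gamma globulin, azide and 0.01% Triton X-100; 3 h at room temperature. IC50 fitted, then converted to Ki.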

Chains of the proteins cited; added tags and fusions are not shown.
UniProt Q07820, whole entry: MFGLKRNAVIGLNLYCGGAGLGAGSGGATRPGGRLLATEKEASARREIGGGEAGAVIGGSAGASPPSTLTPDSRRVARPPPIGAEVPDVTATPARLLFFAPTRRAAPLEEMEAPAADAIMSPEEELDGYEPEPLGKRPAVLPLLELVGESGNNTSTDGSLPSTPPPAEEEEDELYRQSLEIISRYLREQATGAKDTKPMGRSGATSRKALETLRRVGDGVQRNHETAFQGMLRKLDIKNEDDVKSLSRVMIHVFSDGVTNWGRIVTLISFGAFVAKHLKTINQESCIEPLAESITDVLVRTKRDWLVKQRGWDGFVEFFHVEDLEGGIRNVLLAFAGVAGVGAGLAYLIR

One may read the IC50 as the point on the concentration scale where inhibition reaches its midpoint.

Turning to `O=C(O)CSc1cc(NC(=O)Cc2ccc(Cl)cc2)c2ccccc2c1O`, the IC50 in test [1] was 18.3 µM. With `O=C(O)CSc1cc(NS(=O)(=O)c2ccc(Oc3ccccc3)cc2)c2ccccc2c1O`, the IC50 in test [1] was determined as 1.45 µM. In the test filed under Homo sapiens, the Ratio Ki worked out at 42.
